Experimental data reported in PubChem BioAssay (NCATS).
Several values for one entry are separate records, joined by “and”; a condition that tells them apart may be missing. Equal values may be shown once. The entries are a selection whose mix differs from that of the whole data set. Inconclusive results are not listed. Activity calls are given as the source filed them. Unless noted, the call rests on the fitted dose curve; in most records, active means well fitted cell-killing curve with a large enough effect; inconclusive means small, poorly fitted or top-dose-only effect, or effect the other way; inactive means flat fitted curve, though single readings scatter.

Amino acid sequences for entries named in this document (tags omitted).
UniProt Q9R1A7, whole entry: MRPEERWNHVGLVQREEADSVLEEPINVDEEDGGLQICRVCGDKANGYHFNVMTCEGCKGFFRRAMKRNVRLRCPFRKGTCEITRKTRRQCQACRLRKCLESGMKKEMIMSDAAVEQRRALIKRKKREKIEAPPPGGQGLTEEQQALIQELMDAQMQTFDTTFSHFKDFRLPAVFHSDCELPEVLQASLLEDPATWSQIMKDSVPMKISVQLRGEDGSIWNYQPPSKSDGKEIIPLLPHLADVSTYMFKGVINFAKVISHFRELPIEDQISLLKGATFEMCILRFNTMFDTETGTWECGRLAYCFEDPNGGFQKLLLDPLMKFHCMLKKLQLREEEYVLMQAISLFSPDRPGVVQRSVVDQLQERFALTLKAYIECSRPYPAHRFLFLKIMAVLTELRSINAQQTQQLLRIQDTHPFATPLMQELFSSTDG

Tests used:
C33A = test: Primary qHTS to identify gynecologic anti-cancer compounds using libraries of approved drugs and bioactive compounds (AID 1345084); conditions: Gynecologic cancer cell panel viability, ATPlite luminescence, 48 h; at 57.5 µM (top of the series); further: on the % scale 0 is the no-effect control and ±100 the full control effect; nearly all actives have a fitted effect of over 55% in size
Summary of the method: (§1)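 Measured: luminescence after ATPlite addition (15 min, RT). Exposure: 48 h, 37 C, 5% CO2.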

CAOV3 = test: as above; conditions: Gynecologic cancer cell panel viability, ATPlite luminescence, 48 h; at 57.5 µM (top of the series)
Summary of the method: as §1

CASKI = test: as above; conditions: Gynecologic cancer cell panel viability, ATPlite luminescence, 48 h; at 57.5 µM (top of the series)
Summary of the method: as §1

Es-2 = test: as above; conditions: Gynecologic cancer cell panel viability, ATPlite luminescence, 48 h; at 57.5 µM (top of the series)
Summary of the method: as §1

HeLa = test: as above; conditions: Gynecologic cancer cell panel viability, ATPlite luminescence, 48 h; at 57.5 µM (top of the series)
Summary of the method: as §1

Hek293T = test: as above; conditions: Gynecologic cancer cell panel viability, ATPlite luminescence, 48 h, control line for the selectivity index; at 57.5 µM (top of the series)
Summary of the method: as §1

JEG-3 = test: as above; conditions: Gynecologic cancer cell panel viability, ATPlite luminescence, 48 h; at 57.5 µM (top of the series)
Summary of the method: as §1

OV90 = test: as above; conditions: Gynecologic cancer cell panel viability, ATPlite luminescence, 48 h; at 57.5 µM (top of the series)
Summary of the method: as §1

PA-1 = test: as above; conditions: Gynecologic cancer cell panel viability, ATPlite luminescence, 48 h; at 57.5 µM (top of the series)
Summary of the method: as §1

SKOV3 = test: as above; conditions: Gynecologic cancer cell panel viability, ATPlite luminescence, 48 h; at 57.5 µM (top of the series)
Summary of the method: as §1

Tov-21-G = test: as above; conditions: Gynecologic cancer cell panel viability, ATPlite luminescence, 48 h; at 57.5 µM (top of the series)
Summary of the method: as §1

Tov112D = test: as above; conditions: Gynecologic cancer cell panel viability, ATPlite luminescence, 48 h; at 57.5 µM (top of the series)
Summary of the method: as §1

[1] = target: Nuclear receptor subfamily 1 group I member 2 (Rattus norvegicus) (UniProt Q9R1A7); test: qHTS assay for small molecule activators of the rat pregnane X receptor (rPXR) signaling pathway (AID 651751; call rule not given here; further: 0% is about no effect); conditions: rPXR reporter cells, luciferase (One-Glo), 24 h
[2] = qHTS assay for small molecule activators of the human pregnane X receptor (PXR) signaling pathway (AID 720659; call rule not given here; further: 0% is about no effect); conditions: DPX-2 HepG2 CYP3A4-luciferase, 24 h; at 92.3 µM (top of the series)

CC(=O)N1CCc2ccc(N(C(=O)/C=C/c3cccc(C#N)c3)C3CCN(CCC4CCCC4)CC3)cc21
inactive: activity change, negative = cytotoxicity (C33A) 9.24% | activity change, negative = cytotoxicity (CAOV3) 26.2% | activity change, negative = cytotoxicity (CASKI) -1.69% | activity change, negative = cytotoxicity (Es-2) 0.939% | activity change, negative = cytotoxicity (HeLa) 13.9% | activity change, negative = cytotoxicity (Hek293T) 0.369% | activity change, negative = cytotoxicity (JEG-3) 0.172% | activity change, negative = cytotoxicity (OV90) 8.38% | activity change, negative = cytotoxicity (PA-1) 10.3% | activity change, negative = cytotoxicity (SKOV3) 0% | activity change, negative = cytotoxicity (Tov-21-G) 1.79% | activity change, negative = cytotoxicity (Tov112D) 16.8%

CCOC(=O)N1CCC(=O)CC1
inactive: activity change, negative = cytotoxicity (C33A) 16.4% | activity change, negative = cytotoxicity (CAOV3) 2.87% | activity change, negative = cytotoxicity (CASKI) 3.41% | activity change, negative = cytotoxicity (Es-2) -1.69% | activity change, negative = cytotoxicity (HeLa) 8.21% | activity change, negative = cytotoxicity (Hek293T) 3.9% | activity change, negative = cytotoxicity (JEG-3) -2.11% | activity change, negative = cytotoxicity (OV90) -0.241% | activity change, negative = cytotoxicity (PA-1) 4.91% | activity change, negative = cytotoxicity (SKOV3) 27% | activity change, negative = cytotoxicity (Tov-21-G) 16.3% | activity change, negative = cytotoxicity (Tov112D) 5.68%

O=[N+]([O-])c1ccccc1[N+](=O)[O-]
inactive: max response [1] -0.539%

CCC(=O)N(c1ccccc1)C1CCNCC1
inactive: activity change, negative = cytotoxicity (C33A) 6.81% | activity change, negative = cytotoxicity (CAOV3) -0.265% | activity change, negative = cytotoxicity (CASKI) 13.3% | activity change, negative = cytotoxicity (Es-2) 24.7% | activity change, negative = cytotoxicity (HeLa) 7.18% | activity change, negative = cytotoxicity (Hek293T) -8.55% | activity change, negative = cytotoxicity (JEG-3) 12.7% | activity change, negative = cytotoxicity (OV90) -12.2% | activity change, negative = cytotoxicity (PA-1) -2.88% | activity change, negative = cytotoxicity (SKOV3) 1.22% | activity change, negative = cytotoxicity (Tov-21-G) 4.98% | activity change, negative = cytotoxicity (Tov112D) -1.11%

CCOP(=O)(Cl)Cl
inactive: max response [1] 8.1% and 2.92% | activation [2] -2.92% and 24.4%

ClCCOP(OCCCl)OCCCl
inactive: max response [1] 0.193% | activation [2] -16%
